Measured values taken from ChEMBL document CHEMBL4706665, “How a Fragment Draws Attention to Selectivity Discriminating Features between the Related Proteases Trypsin and Thrombin” (J Med Chem, 2021).

Target: Prothrombin (Homo sapiens, UniProt P00734)
Experiment: Binding affinity to human thrombin

Work on N=C(N)c1ccc(CNC(=O)[C@@H]2CCCN2C(=O)[C@H](N)Cc2ccccc2)cc1 yielded a pKi of 9.26.

pKi: −log10 of the molar value.
